## AlphaSeq binding of Ab-14 heavy chain variants to a spike HR2 peptide

Data: MIT Lincoln Laboratory AlphaSeq set, Li et al. 2023, doi:10.1038/s41467-023-39022-2, as distributed in FLAb.

All variants were tested on one target, the spike HR2 peptide PDVDLGDISGINAS (SARS-CoV-2).

Each scFv is VH, three GGGGS repeats, VL, as in the parent Ab-14, and differs from it in the CDRs of the heavy chain only.
VH: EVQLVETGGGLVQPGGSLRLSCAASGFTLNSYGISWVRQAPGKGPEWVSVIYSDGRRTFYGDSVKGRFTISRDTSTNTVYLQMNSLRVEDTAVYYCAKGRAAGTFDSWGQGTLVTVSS
VL: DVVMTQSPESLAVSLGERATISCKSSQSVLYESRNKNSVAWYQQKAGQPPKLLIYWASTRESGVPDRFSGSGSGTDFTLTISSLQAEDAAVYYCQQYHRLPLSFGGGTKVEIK

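The starting antibody came from a phage panning campaign against this peptide. Designed CDR sequences, proposed from the first random library and measured here. Group labels follow the data file (Ctrl: baseline library sampled from a position-specific scoring matrix, with some repeated check sequences; Rand: our label for a block that the file lists under HC and that is probably the random mutants of the ten best first-round binders; En: ensemble of fine-tuned language models; GP: Gaussian process model; GPLM: also part of the Gaussian process libraries; HC: hill climbing; Gen: genetic algorithm; Gibbs: Gibbs sampling; a sequence that several methods proposed may carry one label only). The scFvs were displayed on barcoded MATa yeast, the peptide on MATalpha yeast. Binding brings cells together so that they mate, and sequencing counts the barcode pairs among the diploids. The ratio of observed to expected reads was calibrated, replicate by replicate, on BCL2-family standards whose Kd was known from biolayer interferometry. Each pool was mated in six replicate cultures.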

Positions count from residue 1 of the parent VH; S31D puts D in place of S. Variants here have at most six changes. The Kd shown is the geometric mean over detected replicates; a lower Kd is a better binder. Where no diploid with the target was found in any replicate, the entry reads "nd": below detection, most likely a poor binder, though not proof of it. Of ten entries with the parent sequence, four were seen in most replicates (averages 2.2 nM to 240 nM), three in one and three in none, so single entries are noisy.

For S31D R100S A101L F105V S107L [Ctrl], the assay gave 210 nM (1 of 6 replicates). Variant G55T G61S A102G [Rand] showed nd (0 of 6 replicates). Variant T28S S31E R56K A101E [GP_Gibbs] gave 770 pM (6 of 6 replicates). With S53A R56L V64M F105N D106K [Rand] the result was 89 nM (4 of 6 replicates). Variant T28S G61S R100Q A101D [GP_HC] showed 21 nM (6 of 6 replicates). With R100Q F105D [Ctrl] the result was nd (0 of 6 replicates). For T28D S31E S53A G61K R100N S107M [En_HC], the assay gave nd (0 of 6 replicates). Variant T28E S31E S63M A101T S107K [GP_Gibbs] gave 3.1 nM (6 of 6 replicates).

For T28G G61S R100Q [GPLM_Gen], the assay gave 3.6 nM (6 of 6 replicates). Variant T28E F59M G61I A101T [GP_Gibbs] gave 10 nM (6 of 6 replicates). For S31D T58W D62T G103L D106I [Rand], the assay gave nd (0 of 6 replicates). Variant S31E G61K A101N [GPLM_HC] gave 800 pM (6 of 6 replicates). For S31E G61T V64I A101F [Rand], the assay gave 8.6 nM (6 of 6 replicates). For N30E R56T T58V S107L [Ctrl], the assay gave nd (0 of 6 replicates). Variant S31R G61S R100T [GP_HC] gave 200 nM (3 of 6 replicates). Variant D62G A101H D106W [Ctrl] gave nd (0 of 6 replicates).

Variant T28E F59A G61S S63D G99A G103L [Ctrl] gave nd (0 of 6 replicates). Variant S31M G99W A102P S107W [Ctrl] showed nd (0 of 6 replicates). Variant S31E R100Q S107K [GPLM_Gen] gave 2.9 nM (6 of 6 replicates). With S31Q R56M G61S [GPLM_HC] the result was 4.4 nM (6 of 6 replicates). Variant T28N F59A R100F A101G T104Y [Ctrl] showed nd (0 of 6 replicates). Variant T28N S63P R100K A101T [GP_Gen] gave 3.8 nM (5 of 6 replicates). Variant G99I A101H T104A S107D [Ctrl] showed nd (0 of 6 replicates). For R56K A101T S107M [GP_Gen], the assay gave 870 pM (6 of 6 replicates).

For N30D A101S S107R [GP_HC], the assay gave nd (0 of 6 replicates). For G26T S31D T58N V64A G103L D106I [Rand], the assay gave nd (0 of 6 replicates). With G26H T28D A101Q [GP_Gen] the result was 58 nM (6 of 6 replicates). Variant S53A S63Q R100E [GPLM_Gen] gave 1.3 nM (6 of 6 replicates). With T28N A101L G103L [Ctrl] the result was nd (0 of 6 replicates). Variant G61A R100K S107V [GPLM_Gibbs] gave 2.4 nM (6 of 6 replicates). Variant N30D S107D [GPLM_HC] gave 6.5 nM (5 of 6 replicates). With G26W T28S S31D A101T [GPLM_Gen] the result was 1.5 nM (6 of 6 replicates).

For R56L S63K D106E [Ctrl], the assay gave 44 nM (1 of 6 replicates). Variant S31E R56H G61S R100K [GP_HC] showed 1.8 nM (6 of 6 replicates). Variant T28Q G61A R100Q A101V S107L [GP_Gibbs] showed 20 nM (1 of 6 replicates). For T28G S31A A101T [GP_Gen], the assay gave 6.9 nM (6 of 6 replicates). For T28E G61I [GPLM_Gibbs], the assay gave 99 nM (3 of 6 replicates). Variant T28S F59A G61A A101T [GPLM_Gen] showed 900 pM (6 of 6 replicates). For T28S S31E G61K [GPLM_Gen], the assay gave 620 pM (6 of 6 replicates). Variant S31E G61V S63R G99R R100Q T104P [Ctrl] showed nd (0 of 6 replicates).

Variant S31D R56L A101E A102G [Ctrl] showed 5.1 nM (2 of 6 replicates). For T28E S31E A101C S107T [GP_Gen], the assay gave 52 nM (6 of 6 replicates). Variant T28S S31N A101I [GPLM_Gen] showed 3.7 nM (6 of 6 replicates). Variant R100D S107Q [Ctrl] gave 130 nM (6 of 6 replicates). For F27R G61S A102G G103L [Rand], the assay gave nd (0 of 6 replicates). Variant G61S S63R R100E S107K [GPLM_Gibbs] showed 360 nM (3 of 6 replicates). Variant N30E G61A S63K S107K [GP_Gibbs] showed nd (0 of 6 replicates). Variant S63K G103H [Ctrl] showed nd (0 of 6 replicates).

Variant T28E R100E S107N [GP_Gen] showed nd (0 of 6 replicates). With T28Q S31D S63Q A101T [GP_Gen] the result was 63 pM (5 of 6 replicates). With S31E G61S A102G T104K [GPLM_HC] the result was nd (0 of 6 replicates).

Repeated from above, the 6 best binders with a signal in all replicates:

With T28S S31E G61K [GPLM_Gen] the result was 620 pM (6 of 6 replicates).
With T28S S31E R56K A101E [GP_Gibbs] the result was 770 pM (6 of 6 replicates).
With S31E G61K A101N [GPLM_HC] the result was 800 pM (6 of 6 replicates).
With R56K A101T S107M [GP_Gen] the result was 870 pM (6 of 6 replicates).
With T28S F59A G61A A101T [GPLM_Gen] the result was 900 pM (6 of 6 replicates).
With S53A S63Q R100E [GPLM_Gen] the result was 1.3 nM (6 of 6 replicates).

Three control strains display no target. For all heavy chain designs, 1% of the pairings with them gave a signal, with a median of 120 nM and one signal in twenty below 7.0 nM, so weak values seen in few replicates may be background. Values of this round are not directly comparable with the first-round values of the same sequences. In the paper, a design with two or fewer of six values counts as a poor binder.